# Laboratory results published in US20080207488A1, “Method for Detecting Peptides Comprising a Cross-B Structure” (priority 2005, published 2008).
# Protein sequences, listed by entry. Tags and fused reporters are not part of them. Residues count along the entry.
# UniProt P00750, 36-562: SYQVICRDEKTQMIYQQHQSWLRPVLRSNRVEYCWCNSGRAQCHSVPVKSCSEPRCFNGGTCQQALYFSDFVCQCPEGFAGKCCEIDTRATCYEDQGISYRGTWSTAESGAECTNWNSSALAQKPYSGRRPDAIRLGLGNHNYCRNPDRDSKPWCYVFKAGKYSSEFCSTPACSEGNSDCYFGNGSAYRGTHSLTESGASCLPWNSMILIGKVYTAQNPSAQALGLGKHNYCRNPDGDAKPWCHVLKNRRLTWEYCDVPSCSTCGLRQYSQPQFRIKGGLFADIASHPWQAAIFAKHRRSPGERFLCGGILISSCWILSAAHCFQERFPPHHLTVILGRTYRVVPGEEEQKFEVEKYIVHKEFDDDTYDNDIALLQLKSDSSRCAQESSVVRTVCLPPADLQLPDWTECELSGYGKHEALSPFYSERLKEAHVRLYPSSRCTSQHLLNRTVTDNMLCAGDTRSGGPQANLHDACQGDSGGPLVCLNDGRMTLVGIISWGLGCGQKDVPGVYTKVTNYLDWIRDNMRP
# Assays:
# tPA = molecular target: T1, tPA (Homo sapiens, UniProt P00750); test: Plasminogen-activation assay (tPA-mediated Plg to Pls, S-2251); format: biochemical; conditions: 100 μg ml^−1 protein
# T1 construct: purchased Boehringer-Ingelheim (Actilyse, Alteplase)
# Description: Plasmin (Pls) activity was assayed as described^7. Peptides and proteins that were tested for their stimulatory ability were regularly used at 100 μg ml^−1. […] Chromogenic substrate S-2251 (Chromogenix, Instrumentation Laboratory SpA, Milano, Italy) was used to measure Pls activity. Conversion of zymogen factor XII (#233490, Calbiochem, EMD Biosciences, Inc., San Diego, Calif.) to proteolytically active factor XII (factor XIIa) was assayed by measurement of the conversion of chromogenic substrate Chromozym-PK (Roche Diagnostics, Almere, The Netherlands) by kallikrein. Chromozym-PK was used at a concentration of 0.3 mM. Factor XII, human plasma prekallikrein (#529583, Calbiochem) and human plasma cofactor high-molecular weight kininogen (#422686, Calbiochem) were used at concentrations of 1 μg ml^−1. […] Assays were performed using microtiter plates (Costar, Cambridge, Mass., USA). Peptides and proteins were tested for their ability to activate factor XII. […] The conversion of Chromozym-PK was recorded kinetically at 37° C. for at least 60 minutes. […] With S-2222, activation of factor XII in plasma was measured, using 60% v/v plasma, diluted with substrate and H2O with or without potential cofactor. Furthermore, auto-activation of factor XII was measured by incubating 53 μg ml^−1 purified factor XII in 50 mM Tris-HCl buffer pH 7.5 with 1 mM EDTA and 0.001% v/v Triton-X100, with S-2222 and H2O with or without potential cofactor.
# Formulated protein therapeutics were obtained from the local hospital pharmacy and were used as supplied by the manufacturers. […] Enhancement in fluorescence of ThT and Congo red was measured with all formulated protein therapeutics. […]
# To prepare structurally altered ovalbumin (OVA) with amyloid cross-β structure conformation, purified OVA (Sigma, A-7641, lot 071k7094) was heated to 85° C. […] Native OVA (nOVA) and heat-denatured OVA (dOVA) were tested in the ThT fluorescence assay and in the Plg-activation assay. In the fluorescence assay and in the Plg-activation assay, 25 and 100 μg ml^−1 nOVA and dOVA were tested, respectively. […]
# [1] = Thioflavin T fluorescence; format: physicochemical; conditions: 25 μg ml^−1
# Description: Fluorescence of ThT-protein/peptide adducts was measured as follows. […] Fluorescence was measured at 485 nm upon excitation at 435 nm. Background signals from buffer, buffer with ThT and protein/peptide solution without ThT were subtracted from corresponding measurements with protein solution incubated with ThT. […] Fluorescence was measured in triplicate on a Hitachi F-4500 fluorescence spectrophotometer (Ltd., Tokyo, Japan).
# Formulated protein therapeutics were obtained from the local hospital pharmacy and were used as supplied by the manufacturers. […] Lyophilized therapeutics were dissolved according to the manufacturers recommendations. […] Other protein therapeutics were only kept at 4° C., and assayed for the presence of cross-β structure conformation at shown time points. Enhancement in fluorescence of ThT and Congo red was measured with all formulated protein therapeutics. For this purpose, proteins were diluted to the indicated concentrations. […] Zinc-insulin was diluted tenfold in the activation assay, GH was diluted to a final concentration of 500 μg ml^−1. Activation of factor XII and prekallikrein by the therapeutics was tested in the chromogenic factor XII assay (see above). […] After coating, plates were blocked with Blocking Reagent (Roche Diagnostics, Almere, The Netherlands).
# To prepare structurally altered ovalbumin (OVA) with amyloid cross-β structure conformation, purified OVA (Sigma, A-7641, lot 071k7094) was heated to 85° C. […] Native OVA (nOVA) and heat-denatured OVA (dOVA) were tested in the ThT fluorescence assay and in the Plg-activation assay. In the fluorescence assay and in the Plg-activation assay, 25 and 100 μg ml^−1 nOVA and dOVA were tested, respectively. […] In the ThT-fluorescence assay 25 μg ml^−1 nMSA and alkyl-MSA were tested, and in the Plg-activation assay 100 μg ml^−1 was tested. The presence of aggregates or fibrils was analyzed using TEM. […]
# Protein therapeutics were obtained from the local hospital pharmacy and analyzed within the expiry limits as stated by the manufacturers.
substance,measurement,setting,value
alkylated MSA: reduced-alkylated murine serum albumin,stimulation of tPA-mediated conversion of Plg to Pls,tPA,differ in tPA activating potential
same,ThT fluorescence enhancement of native and denatured proteins,[1],enhance ThT fluorescence to a similar extent
heat-denatured MSA: murine serum albumin heat denatured at 85° C.,stimulation of tPA-mediated conversion of Plg to Pls,tPA,differ in tPA activating potential
same,ThT fluorescence enhancement of native and denatured proteins,[1],enhance ThT fluorescence to a similar extent
native MSA: native murine serum albumin,stimulation of tPA-mediated conversion of Plg to Pls,tPA,not reflected by stimulation of tPA activation
same,ThT fluorescence enhancement of native and denatured proteins,[1],enhanced ThT fluorescence to some extent
